The list shows a part of the results, in another mix than the full data. Activity calls are given as the source filed them. The call rests on the fitted dose curve; in most records, active means well fitted activation curve with a large enough effect; inconclusive means small, poorly fitted or top-dose-only effect; inactive means no such curve, though single readings can be large or run the other way.
target: Rap guanine nucleotide exchange factor 3 (Homo sapiens) (UniProt O95398); test: qHTS for Agonist of cAMP-regulated guanine nucleotide exchange factor 3 (EPAC1): primary screen; settings: biochemical assay, 100% = response to 6.5 mM cAMP; at 154 µM (top of the series); further: nearly all actives have a fitted effect of over 60% in size
Description: In multi-cellular eukaryotic organisms, the effects of cAMP are transduced by two ubiquitously-expressed intracellular cAMP receptors, the classic protein kinase A/cAMP-dependent protein kinase (PKA/cAPK) and the more recently discovered exchange protein directly activated by cAMP/cAMP-regulated guanine nucleotide exchange factor (EPAC/cAMP-GEF). Both PKA and EPAC are ubiquitously expressed in all tissues, and an increase in intracellular cAMP levels will lead to the activation of both PKA and EPAC. […]
This qHTS will be used to screen the Molecular Libraries Small Molecule Repository (MLSMR) as a concentration-titration series using the NCGC unique quantitative screening (qHTS) platform to find activators for EPAC1. […] Activators are identified by monitoring the change in fluorescence signal as the exchanged free BODIPY-GDP has a reduced fluorescence compared to Rap1-bound BODIPY-GDP. […]
Briefly, three uL of reagents (100 nM EPAC1, 250 nM RAP1B-BODIPY-GDP, 50 uM GDP) were dispensed into a 1536-well Greiner black solid-bottom medium binding assay plate. […] The assay plates were read at 5 minute intervals for 30 minutes in the ViewLux plate reader using 480nm excitation and 540nm emission filters. […]

Sequences of proteins named here, by UniProt entry; tags and fusion partners are left off.
UniProt O95398, whole entry: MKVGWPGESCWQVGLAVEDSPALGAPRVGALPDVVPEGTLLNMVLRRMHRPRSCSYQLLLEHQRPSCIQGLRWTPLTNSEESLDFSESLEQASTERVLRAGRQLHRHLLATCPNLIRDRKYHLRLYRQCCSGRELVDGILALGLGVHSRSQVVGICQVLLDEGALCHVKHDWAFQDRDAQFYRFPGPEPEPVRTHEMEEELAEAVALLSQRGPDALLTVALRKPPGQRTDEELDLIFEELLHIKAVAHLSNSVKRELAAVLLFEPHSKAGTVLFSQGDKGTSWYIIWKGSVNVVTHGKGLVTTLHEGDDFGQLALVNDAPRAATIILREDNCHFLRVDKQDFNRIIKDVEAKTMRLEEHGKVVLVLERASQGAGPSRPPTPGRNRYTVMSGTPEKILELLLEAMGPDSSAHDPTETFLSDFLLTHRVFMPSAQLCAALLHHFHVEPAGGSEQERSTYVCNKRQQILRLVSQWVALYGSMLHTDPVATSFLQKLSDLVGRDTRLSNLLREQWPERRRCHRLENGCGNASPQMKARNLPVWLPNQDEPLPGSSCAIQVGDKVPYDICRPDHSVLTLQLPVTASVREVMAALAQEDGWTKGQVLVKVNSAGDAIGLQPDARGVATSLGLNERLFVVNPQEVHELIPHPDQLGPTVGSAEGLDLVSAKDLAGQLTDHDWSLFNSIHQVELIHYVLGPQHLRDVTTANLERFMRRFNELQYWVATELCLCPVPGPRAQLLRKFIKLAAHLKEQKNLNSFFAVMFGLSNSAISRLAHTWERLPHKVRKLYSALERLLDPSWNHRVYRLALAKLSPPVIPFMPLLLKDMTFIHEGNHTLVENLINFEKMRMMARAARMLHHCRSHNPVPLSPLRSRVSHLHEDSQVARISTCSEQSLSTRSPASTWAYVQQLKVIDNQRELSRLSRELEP

Which activation does the source give for `CCC(=O)N(c1ccccc1)C1(COC)CCN(CCc2cccs2)CC1` here?
Its activation is inactive: -11%.

How did the activation turn out when `CCC(=O)N(c1ccccc1)C1(COC)CCN(CCn2nnn(CC)c2=O)CC1` was run?
The activation was inactive: -16.7%.

Reference: PubChem BioAssay AID720707 (National Center for Advancing Translational Sciences (NCATS), 2013)
